Laboratory results published in patent US20240059727A1, “METHOD OF MAKING NICOTINAMIDE RIBOFURANOSIDE SALTS BY SALT METATHESIS, THE CRYSTALLINE FORM OF ITS TOSYLATE SALT AND THE CO-CRYSTALLIZED FORM OF ITS CHLORIDE:IODIDE SALT” (BIOSYNTH AG, priority 2021, published 2024).

Experiment: Solubility in methanol
Conditions: mL solvent per g of NR+ salt, lower value = better solubility

Row | Substance | Solubility in MeOH
1 | co-crystallized nicotinamide-β-D-ribofuranoside (chloride/iodide) [chloride:iodide = 3:1] | 21 mL solvent per g
2 | co-crystallized nicotinamide-β-D-ribofuranoside (chloride/iodide) [chloride:iodide = ~5:1] | 23 mL solvent per g
